Results: article PMC9677951 (Journal of medicinal chemistry, 2020)
“And” between values parts separate entries of the source, which are not always exact repeats. Equal entries are not always repeated. Where two headings read alike, the source gives them in different places.

Amino acid sequences for entries named in this document (tags omitted). A change or cut given only in a name is not applied to a line headed by its entry.
UniProt Q12809: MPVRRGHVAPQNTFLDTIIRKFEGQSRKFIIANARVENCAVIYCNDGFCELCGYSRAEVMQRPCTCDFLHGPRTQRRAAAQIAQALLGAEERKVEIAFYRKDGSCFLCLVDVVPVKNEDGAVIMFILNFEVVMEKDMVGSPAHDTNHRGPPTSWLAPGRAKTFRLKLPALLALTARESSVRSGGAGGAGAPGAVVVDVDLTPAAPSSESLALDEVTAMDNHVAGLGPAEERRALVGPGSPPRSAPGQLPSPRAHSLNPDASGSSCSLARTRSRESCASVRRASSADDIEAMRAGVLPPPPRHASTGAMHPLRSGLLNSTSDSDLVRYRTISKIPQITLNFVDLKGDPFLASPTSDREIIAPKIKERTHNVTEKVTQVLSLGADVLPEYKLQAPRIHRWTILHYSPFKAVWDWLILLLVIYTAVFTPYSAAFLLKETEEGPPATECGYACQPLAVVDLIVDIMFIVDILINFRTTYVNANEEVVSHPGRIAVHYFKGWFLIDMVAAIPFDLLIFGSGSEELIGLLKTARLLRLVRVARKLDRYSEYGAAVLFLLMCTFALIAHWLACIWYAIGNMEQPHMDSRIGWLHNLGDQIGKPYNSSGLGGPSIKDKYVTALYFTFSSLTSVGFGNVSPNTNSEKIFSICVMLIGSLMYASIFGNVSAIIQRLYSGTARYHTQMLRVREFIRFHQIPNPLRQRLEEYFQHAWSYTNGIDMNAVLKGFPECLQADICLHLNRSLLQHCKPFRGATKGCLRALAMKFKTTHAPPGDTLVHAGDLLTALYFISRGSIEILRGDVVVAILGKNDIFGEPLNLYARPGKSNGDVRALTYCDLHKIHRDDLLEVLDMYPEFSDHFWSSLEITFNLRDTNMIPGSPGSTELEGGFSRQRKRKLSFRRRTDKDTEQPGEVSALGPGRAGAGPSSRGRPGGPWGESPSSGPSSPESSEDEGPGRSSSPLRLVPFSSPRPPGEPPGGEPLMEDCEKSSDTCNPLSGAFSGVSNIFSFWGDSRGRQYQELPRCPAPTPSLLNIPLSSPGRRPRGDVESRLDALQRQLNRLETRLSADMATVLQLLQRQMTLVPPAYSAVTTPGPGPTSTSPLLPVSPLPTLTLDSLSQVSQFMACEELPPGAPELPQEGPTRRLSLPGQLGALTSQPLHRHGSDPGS

Tests used:
[1] = system: MT-4 cells; conditions: for cytotoxicity at fixed concentration: at the concentration of 300 μM
[2] = in vitro; conditions: human, CC50, mock-infected MT-4 cells, MTT method
[3] = system: MT-4 cells; conditions: previously reported; ref [9]-[13]; cited from earlier work
[4] = target: hERG potassium channel (Homo sapiens, UniProt Q12809); conditions: HEK293 cells, individual cells 1-3
[5] = in vitro; conditions: human, microsomes

Structure (SMILES): Cc1cc(C#N)cc(C)c1Oc1nc(Nc2ccc(C#N)cc2)nc(N)c1Br [ETR, Etravirine]
- CC50 ([1]; mock-infected MT-4 cells, MTT method): > 4.59 µM
- CC50 [2]: > 4.58 µM
- CC50 [3]: > 4.6 µM

Structure (SMILES): Cc1cc(C#N)cc(C)c1Oc1nc(Nc2ccc(C#N)c(F)c2)nc2sccc12 [Compound 11b, 4-((2-((4-cyano-3-fluorophenyl)amino)thieno[2,3-d]pyrimidin-4-yl)oxy)-3,5-dimethylbenzonitrile]
- cytotoxicity at fixed concentration [1]: no cytotoxicity

Structure (SMILES): Cc1cc(C#N)cc(C)c1Oc1nc(Nc2ccc(C#N)c(F)c2)nc2ccsc12 [Compound 9b, 4-((2-((4-cyano-3-fluorophenyl)amino)thieno[3,2-d]pyrimidin-4-yl)oxy)-3,5-dimethylbenzonitrile]
- cytotoxicity at fixed concentration [1]: no cytotoxicity

Structure (SMILES): Cc1cc(/C=C/C#N)cc(C)c1Oc1nc(Nc2ccc(C#N)c(F)c2)nc2ccsc12 [Compound 24b, (E)-4-((4-(4-(2-cyanovinyl)-2,6-dimethylphenoxy)thieno[3,2-d]pyrimidin-2-yl)amino)-2-fluorobenzonitrile]
- hERG inhibitory effect, single cell ([4]; 0.3 μM): 4.12% and 1.75%
- hERG inhibitory effect, single cell ([4]; 1 μM): 9.21%
- hERG inhibitory effect, single cell ([4]; 3 μM): 11.90%
- hERG inhibitory effect, single cell ([4]; 30 μM): 22.85%
- CLint scaled [5]: 15.6 mL/min/kg
